In the assay the target is human GLP-1 receptor (Homo sapiens, UniProt P43220). Nature of the assay: Saturation experiments with labelled GLP-1 tracer on plasma membranes, with or without example 2. Details: expressed in transfected cells; host or cells: BHK (baby hamster kidney) cells; plasma membranes prepared from them. It counts as binding.

By UniProt entry, the sequences of proteins in these tests, tags left out. Residues count along the entry.
UniProt P43220, 24-463: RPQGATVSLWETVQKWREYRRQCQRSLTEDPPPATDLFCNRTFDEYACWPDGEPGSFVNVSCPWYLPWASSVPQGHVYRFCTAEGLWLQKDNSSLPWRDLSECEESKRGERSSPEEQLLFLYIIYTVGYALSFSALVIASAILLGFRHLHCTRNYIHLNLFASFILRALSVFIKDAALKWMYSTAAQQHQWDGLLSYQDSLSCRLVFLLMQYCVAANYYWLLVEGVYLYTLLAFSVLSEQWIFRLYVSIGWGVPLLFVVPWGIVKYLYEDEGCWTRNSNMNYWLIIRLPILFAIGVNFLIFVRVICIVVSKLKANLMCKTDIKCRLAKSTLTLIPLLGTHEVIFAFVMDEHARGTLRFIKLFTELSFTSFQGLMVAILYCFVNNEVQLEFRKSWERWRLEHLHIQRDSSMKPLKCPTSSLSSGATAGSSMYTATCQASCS

For the substance GLP-1, the Bmax by setting is: (absence of example 2, 30° C., first of two binding sites (low affinity)) 6.5 pM; (absence of example 2, 30° C., the other of two binding sites (high affinity)) 2.0 pM; (presence of 10 μM example 2, 30° C., one binding site) 7.5 pM.

Source of the values: patent US6927214B1 (Novo Nordisk A/S, priority 1999, dated 2005).
